Data on two compounds can be found in patent US20220363709A1, “ECTONU[…] METHODS OF USE THEREOF” (priority 2019, published 2022).

By UniProt entry, the sequences of proteins in these tests, tags left out. Residues count along the entry.
UniProt P21589, 27-547 limits assumed: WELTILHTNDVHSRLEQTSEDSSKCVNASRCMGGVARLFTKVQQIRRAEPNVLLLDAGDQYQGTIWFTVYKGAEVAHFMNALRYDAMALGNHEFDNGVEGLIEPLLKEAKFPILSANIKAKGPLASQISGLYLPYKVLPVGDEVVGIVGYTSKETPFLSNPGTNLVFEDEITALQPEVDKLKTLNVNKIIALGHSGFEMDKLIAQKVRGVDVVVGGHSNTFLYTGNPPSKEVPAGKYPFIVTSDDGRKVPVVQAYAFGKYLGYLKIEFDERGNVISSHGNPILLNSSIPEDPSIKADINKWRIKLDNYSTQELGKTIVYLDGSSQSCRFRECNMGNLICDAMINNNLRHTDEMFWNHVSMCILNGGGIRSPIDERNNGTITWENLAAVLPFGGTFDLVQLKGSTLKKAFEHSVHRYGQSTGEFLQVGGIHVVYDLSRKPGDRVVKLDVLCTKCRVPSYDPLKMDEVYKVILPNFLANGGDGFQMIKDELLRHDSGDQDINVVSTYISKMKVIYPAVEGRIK

The assay concerns the target recombinant CD73 (Homo sapiens, UniProt P21589). Description: Assay 1: Inhibition of the CD73 Enzyme In Vitro. The note with it: read-out: Assay 1 CD73 IC50; soluble recombinant CD73 0.5 nM, AMP 50 μM, 30 minutes at room temperature, Malachite Green, absorbance at 630 nm.

In the case of `Nc1nc(Cl)nc2c1ncn2[C@@H]1O[C@H](CO[C@@](Cc2ccccc2)(C(=O)O)c2nc[nH]n2)[C@@H](O)[C@H]1O` (single isomer, unassigned), the IC50 was determined as 5.86 µM.
Then `Nc1nc(Cl)nc2c1ncn2[C@@H]1O[C@H](CO[C@](Cc2ccccc2)(C(=O)O)c2nc[nH]n2)[C@@H](O)[C@H]1O` (single isomer, unassigned), with 0.42 µM.
